Measured values reported in publication PMC8488277, “Permeability Data of Organosulfur Garlic Compounds Estimated by Immobilized Artificial Membrane Chromatography: Correlation Across Several Biological Barriers” (Frontiers in Chemistry, 2021).

Experiment: IAM-HPLC chromatographic capacity factor (log k' IAM)
Format: physicochemical
Details: IAM.PC.MG 12 µm column; isocratic ACN/0.035 M phosphate buffer pH 6.8 (30:70 v/v), 0.5 ml/min; k'=(Tr–T0)/T0; mean of 2–4 determinations
Experimental: Chromatographic analysis was performed using a Shimadzu LC 20A chromatograph coupled to a diode array detector, operated at a range of 210–260 nm, depending on the analyzed compound. A biomimetic commercially available column was used in all experiments: IAM. PC.MG12 µm (150 × 4.6 mm) was purchased from Regis Chemical Company (Morton Grove, IL).
OSC separation conditions under IAM-HPLC were adapted from [Luco et al. (2003]) and [Barbato et al. (1998]), with modifications. The chromatographic mode consisted in an isocratic elution used as the mobile phase ACN/0.035 M phosphate buffer −pH 6.8− (30:70 (v/v)) at 0.5 ml min^−1. The column dead time (T0) was estimated by ascorbic acid retention time which was measured at 210 nm. The obtained retention data were used to calculate the chromatographic parameter corresponding to the capacity factor k’ as follows: k’ = (Tr–T0)/T0. All capacity factors given represent the mean of 2–4 determinations of each sample solution.
For this study, we considered 28 phytochemical compounds containing sulfur-based groups. […] Most of these compounds are garlic-derived substances with bioactive functions. […] We chose them because of their bioactive functionality and their similar metabolism within the plants and human body. […]

(+)-S-allylcysteine sulfoxide [Alliin]
Log (k'IAM): −1.710
